The target of series [1] is Kappa-type opioid receptor (Homo sapiens, UniProt P41145). Description: Agonist activity at Tango-KOR (unknown origin) expressed in HTLA cells harboring TEV-fused-beta-arrestin 2 assessed as increase in beta arrestin 2 recruitment after overnight incubation by BrightGlo reagent based assay. (Arrestin recruitment assays detect the binding of arrestin to an activated receptor.)

Series [2] concerns T-cell. Put plainly: Inhibition of PMA/ionomycin-stimulated OPRK-deficient mouse T cells activation assessed as CD69-positive cells at 5 ug/ml treated for 48 hrs starting from 12 hrs post PMA/ionomycin stimulation by flow cytometry (reference value: 45.1%). Details: scale not given: the % may be the effect or the level left.
The test system of series [3] is T-cell. Description: Inhibition of PMA/ionomycin-stimulated OPRK-deficient mouse T cells activation assessed as CD44-positive cells at 5 ug/ml treated for 48 hrs starting from 12 hrs post PMA/ionomycin stimulation by flow cytometry (reference value: […]). Details: scale not given: the % may be the effect or the level left.
Another series concerns the target Mu-type opioid receptor (Cavia porcellus, UniProt P97266). Put plainly: Displacement of [3H]DAMGO from MOR in guinea pig brain membranes at 1 uM after 120 mins by scintillation counting method relative to control. The note with it: 2 h.

This passage reports EC50, Activity and inhibition (INH) results from ChEMBL document CHEMBL4371059 (J Med Chem, 2019).

A value given as a limit tells only on which side of the number the result lay.

With `O=C(Cc1ccc(Cl)c(Cl)c1)N1CCN(C(=O)COCCF)[C@H]2CCC[C@H](N3CCCC3)[C@H]21`, the EC50 (as a rule, the concentration giving half of the maximal effect) in series [1] worked out at 227 nM.
`O=C(Cc1ccc(Cl)c(Cl)c1)N1CCN[C@H]2CCC[C@H](N3CCCC3)[C@H]21` [listing 1 of 2 here]: the Activity in the series with T-cell [2] turned out to be 40.6%; with T-cell [3] it was 6.7%.
The matching figures for `O=C(Cc1ccc(Cl)c(Cl)c1)N1CCN(Cc2cn(CCF)nn2)[C@H]2CCC[C@H](N3CCCC3)[C@H]21` [listing 1 of 2 here]: 35.4% and 7.8%.
In the case of `CCN1CCN(C(=O)Cc2ccc(Cl)c(Cl)c2)[C@H]2[C@@H]1CCC[C@@H]2N1CCCC1`, the EC50 in series [1] is 12 nM. Further, the inhibition (INH) on Mu-type opioid receptor was greater than 50%.
With `CCCCN1CCN(C(=O)Cc2ccc(Cl)c(Cl)c2)[C@@H]2[C@@H](N3CCCC3)CCC[C@@H]21` (racemic), the EC50 in series [1] was 33 nM. The same compound registered an inhibition (INH) at Mu-type opioid receptor greater than 50%.
As to `CCCN1CCN(C(=O)Cc2ccc(Cl)c(Cl)c2)[C@@H]2[C@@H](N3CCCC3)CCC[C@@H]21` (racemic), the EC50 in series [1] is 7.9 nM. This compound had an inhibition (INH) at Mu-type opioid receptor greater than 50%.
For `COC(=O)N1CCN(C(=O)Cc2ccc(Cl)c(Cl)c2)[C@@H]2[C@@H](N3CCCC3)CCC[C@@H]21`, the inhibition (INH) on Mu-type opioid receptor came to 0%.
As for `CN1CCN(C(=O)Cc2ccc(Cl)c(Cl)c2)[C@H]2[C@@H]1CCC[C@@H]2N1CCCC1`, in series [1], the EC50 is 17 nM. The same compound gave an inhibition (INH) at Mu-type opioid receptor of 0%.
Taken in the same sequence, the figures for `O=C(Cc1ccc(Cl)c(Cl)c1)N1CCN(Cc2ccc(F)cc2)[C@H]2CCC[C@H](N3CCCC3)[C@H]21` were 247 nM and 0%.
`O=C(Cc1ccc(Cl)c(Cl)c1)N1CCN[C@H]2CCC[C@H](N3CCCC3)[C@H]21` [listing 2 of 2 here] gave an inhibition (INH) on Mu-type opioid receptor of 28%.
Regarding `CC(C)(C)OC(=O)N1CCN(C(=O)Cc2ccc(Cl)c(Cl)c2)[C@@H]2[C@@H](N3CCCC3)CCC[C@@H]21`, the EC50 in series [1] is 42 nM. The same compound displayed an inhibition (INH) on Mu-type opioid receptor greater than 50%.
Turning to `O=C(Cc1ccc(Cl)c(Cl)c1)N1CCN(C(=O)Cn2cc(CCCF)nn2)[C@H]2CCC[C@H](N3CCCC3)[C@H]21`, on Mu-type opioid receptor, the inhibition (INH) was greater than 50%.
On the same count and under the same terms, in the case of `O=C(Cc1ccc(Cl)c(Cl)c1)N1CCN(Cc2cn(CCF)nn2)[C@H]2CCC[C@H](N3CCCC3)[C@H]21` [listing 2 of 2 here] it was greater than 50%.
